Results taken from PubChem BioAssay AID651661 (Broad Institute, 2012).
This is a selection; strong and weak results do not stand in their true shares. Calls of active or inactive are those of the source.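 Rule for the calls: active = mean inhibition of at least 50% after viability correction, with every replicate also passing that limit; inconclusive = mean reaches 50% but only one of two replicates passes; inactive = the rest.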

Experiment: blockers of EWS/Fli transcriptional output – A673 cells, NR0B1 luciferase, luminescence, MLPCN library, primary screen (AID 651661);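 note: firefly luciferase signal divided by Alamar Blue viability fluorescence both relative to DMSO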
Settings: A673 NR0B1-luciferase reporter, viability-normalised; at 12.6 µM; stronger effect = higher value

| SMILES | inhibition |
| --- | --- |
| Cc1ccc(S(=O)(=O)N(CCCN)CCCc2c(C)nc(N)[nH]c2=O)cc1 | inactive: 0.215% |
| NS(=O)(=O)c1cccc(NC(=O)COC(=O)C(O)(c2ccccc2)c2ccccc2)c1 | inactive: 1.15% |
| O=[As](O)(c1cccs1)c1cccs1 | inactive: -6.13% |
| Nc1cccc([As](=O)(O)c2ccccc2)c1 | inactive: -7.14% |
| CC1CCC(C(C)C)C(OP(=O)(Nc2ccccn2)c2ccccc2)C1 (configuration not stated) | inactive: 9.5% |
| Cc1ccc(C(=O)OC2CN3CCC2CC3)cc1 (configuration not stated) | inactive: -11.1% |
| O=C(/C=C/c1ccccc1)OC1CN2CCC1CC2 (configuration not stated) | inactive: -5.35% |
| CCCC1OP(=O)(Nc2ccccc2)OCC1CC (configuration not stated) | inactive: -4.14% |
| CN(C)C1(CNC(=O)c2ccc(S(C)(=O)=O)cc2)CCCCC1 | inactive: 7.65% |
| COc1ccccc1CNC(=O)COC(=O)C(O)(c1ccccc1)c1ccccc1 | inactive: 1.93% |
| CC(C)/C=N\N=C(\N)N[N+](=O)[O-] | inactive: -4.48% |
| CN(C(=O)Cc1ccc(Cl)c(Cl)c1)[C@@H]1CCCC[C@H]1N1CCCC1 | inactive: -6.01% |
| CN(C(=O)Cc1ccc(Cl)c(Cl)c1)C1CCCC[C@@H]1N1CCCC1 (some centres not stated) | inactive: 3.7% |
| CN(CCCl)Cc1cc(Cl)c(NC2=NCCN2)c(Cl)c1 | inactive: -15.7% |
| CCOP(=O)(Nc1ccc(C)cn1)OCC | inactive: -1.22% |
| CCC1=CC2Cc3nc4ccc(Cl)cc4c(N)c3C(C1)C2 (configuration not stated) | inactive: 21.2% |
| CCOP(=O)(NC(=NC(C)c1ccccc1)NC(C)c1ccccc1)OCC (configuration not stated) | inactive: -7.23% |
| O=P1(N(CCCl)CCCl)NCCC(C(F)(F)F)O1 (configuration not stated) | inactive: -12.7% |
| CC(C)(C)C(=O)NC(Sc1ncccn1)C(Cl)(Cl)Cl (configuration not stated) | inactive: 18.8% |
| CCCOP(=S)(Nc1nc(N)cc(=O)[nH]1)OCCC | inactive: 12.6% |
| Cc1ccc(NCCc2c([N+](=O)[O-])cc([N+](=O)[O-])cc2[N+](=O)[O-])cc1 | inactive: -2.41% |

| SMILES | inhibition |
| --- | --- |
| Nc1cccc2c([As](=O)(O)O)cccc12 | inactive: 15.6% |
| CCOP(=O)(Nc1cccc2ccccc12)OCC | inactive: 4.44% |
| COc1cc(C(=O)NCC2(N3CCOCC3)CCCCC2)cc(Cl)c1OC(C)C | inactive: -9.19% |
| O=[As](O)(O)c1cccnc1 | inactive: -2.64% |
| O=C(OC1CN2CCC1CC2)c1ccc(Cl)cc1 (configuration not stated) | inactive: -4.42% |
| O=[As](O)(c1cccc(O)c1)c1cccc(O)c1 | inactive: 3.42% |
| NC(=O)Nc1ccc([As](=O)(O)O)cc1 | inactive: 4.23% |
| CN(C)C(=O)c1cc([N+](=O)[O-])cc2c1-c1c(cc([N+](=O)[O-])cc1[N+](=O)[O-])C2=O | inactive: 32.1% |
| CN(C(=O)Cc1ccc(Cl)c(Cl)c1)[C@H]1CC[C@@]2(CCCO2)C[C@@H]1N1CCCC1 | inactive: -5.72% |
| N#CCCN(C(=O)COC(=O)C(O)(c1ccccc1)c1ccccc1)c1ccc(F)cc1 | inactive: 2.94% |
| CN(C(=O)Cc1ccccc1)[C@@H]1CC[C@]2(CCCO2)C[C@H]1N1CCCC1 | inactive: -0.0785% |
| CCOP1(=S)c2c(C)nn(CCC#N)c2N=C(c2ccc(F)cc2)N1C (configuration not stated) | inactive: 10.8% |
| CCOP1(=S)c2c(C)nn(CCC#N)c2N=C(c2ccccc2F)N1C (configuration not stated) | inactive: -1.27% |
| O=P(Nc1nccs1)(Oc1ccccc1)Oc1ccccc1 | inactive: 2.93% |
| Nc1ccccc1[As](=O)(O)c1ccccc1 | inactive: 2.01% |
| O=C(O)COc1ccc([As](=O)(O)O)cc1[N+](=O)[O-] | inactive: 2.11% |
| CC(C)c1ccc(OP(=O)(Nc2ccccn2)Oc2ccccc2F)cc1 (configuration not stated) | inactive: 1.65% |
| COC(=O)C1(C)COP(=O)(N2CCCCCC2)OC1 (configuration not stated) | inactive: -1.91% |
| O=C(OC1CN2CCC1CC2)c1cccc2[nH]cnc12 (configuration not stated) | inactive: -6.67% |
| CC(C)NC(=O)NP(=O)(Oc1ccccc1)Oc1ccccc1 | inactive: -0.1% |
| O=[As](O)(c1ccc(O)cc1)c1ccccc1O | inactive: 10.3% |

| SMILES | inhibition |
| --- | --- |
| C[As](=O)(O)c1cccc(C(=O)O)c1 | inactive: -4.06% |
| COc1cc(C(=O)NCC2(N3CCOCC3)CCCCC2)ccc1OCC(C)C | inactive: -8.43% |
| O=[N+]([O-])c1ccc(-c2cc([N+](=O)[O-])c(O)c([N+](=O)[O-])c2)cc1 | inactive: -8.85% |
| Cc1ccc2nc3c(c(C)c2c1)CC(C(Cl)Cl)S3 (configuration not stated) | inactive: -37% |
| [N-]=[N+]=NC1CCCCC1NC(=O)c1cc([N+](=O)[O-])cc([N+](=O)[O-])c1 (configuration not stated) | inactive: -1.43% |
| Cc1ccc(OP(=O)(Nc2ccc([N+](=O)[O-])cn2)Oc2ccc(C)cc2)cc1 | inactive: 7.11% |
| COc1ccc(N/C(=N/P(=O)(N2CCOCC2)N2CCOCC2)N2CCOCC2)cc1 | inactive: -7.75% |
| O=[N+]([O-])c1cc(Oc2ccc([N+](=O)[O-])cc2C(F)(F)F)cc([N+](=O)[O-])c1 | inactive: -6.73% |
| Cc1cc(=O)[nH]c(N[N+](=O)[O-])n1 | inactive: 5.38% |
| Cc1c2c(nc3ccccc13)SC(C(Cl)Cl)C2 (configuration not stated) | inactive: -12.1% |
| COc1ccc2nc(NP(=O)(c3ccccc3)c3ccccc3)sc2c1 | inactive: 2.76% |
| COc1cc(I)ccc1[As](=O)(O)O | inactive: -4.5% |
| COc1ccc(CN2/C(=N\P(=O)(Oc3ccccc3)Oc3ccccc3)Cc3ccccc3C2C2CC2)cc1 (configuration not stated) | inactive: 30.9% |
| O=P1(N(CCCl)CCCl)OCCCN1CCCl (configuration not stated) | inactive: -12.7% |
| O=P1(N(CCCl)CCCl)Nc2ccccc2N1 | inactive: -45.6% |
| CCOC(=O)c1ccc(NC(=O)C(C)(CCl)SC)cc1 (configuration not stated) | inactive: -37.6% |
| O=C(OC1CN2CCC1CC2)c1cccc([N+](=O)[O-])c1 (configuration not stated) | inactive: 7.72% |
| COP1(=S)c2c(C)nn(CCC#N)c2N=C(c2ccc(F)cc2)N1C (configuration not stated) | inactive: 2.88% |
| COC(=O)C1(C)COP(=O)(N2CCCC2)OC1 (configuration not stated) | inactive: 1.82% |
| O=C(Nc1ccncc1[N+](=O)[O-])c1ccc([N+](=O)[O-])cc1[N+](=O)[O-] | inactive: 1.87% |
